This test deals with T1, Histone-lysine N-methyltransferase NSD2 (Homo sapiens, UniProt O96028).
T1 sequence (O96028 whole entry): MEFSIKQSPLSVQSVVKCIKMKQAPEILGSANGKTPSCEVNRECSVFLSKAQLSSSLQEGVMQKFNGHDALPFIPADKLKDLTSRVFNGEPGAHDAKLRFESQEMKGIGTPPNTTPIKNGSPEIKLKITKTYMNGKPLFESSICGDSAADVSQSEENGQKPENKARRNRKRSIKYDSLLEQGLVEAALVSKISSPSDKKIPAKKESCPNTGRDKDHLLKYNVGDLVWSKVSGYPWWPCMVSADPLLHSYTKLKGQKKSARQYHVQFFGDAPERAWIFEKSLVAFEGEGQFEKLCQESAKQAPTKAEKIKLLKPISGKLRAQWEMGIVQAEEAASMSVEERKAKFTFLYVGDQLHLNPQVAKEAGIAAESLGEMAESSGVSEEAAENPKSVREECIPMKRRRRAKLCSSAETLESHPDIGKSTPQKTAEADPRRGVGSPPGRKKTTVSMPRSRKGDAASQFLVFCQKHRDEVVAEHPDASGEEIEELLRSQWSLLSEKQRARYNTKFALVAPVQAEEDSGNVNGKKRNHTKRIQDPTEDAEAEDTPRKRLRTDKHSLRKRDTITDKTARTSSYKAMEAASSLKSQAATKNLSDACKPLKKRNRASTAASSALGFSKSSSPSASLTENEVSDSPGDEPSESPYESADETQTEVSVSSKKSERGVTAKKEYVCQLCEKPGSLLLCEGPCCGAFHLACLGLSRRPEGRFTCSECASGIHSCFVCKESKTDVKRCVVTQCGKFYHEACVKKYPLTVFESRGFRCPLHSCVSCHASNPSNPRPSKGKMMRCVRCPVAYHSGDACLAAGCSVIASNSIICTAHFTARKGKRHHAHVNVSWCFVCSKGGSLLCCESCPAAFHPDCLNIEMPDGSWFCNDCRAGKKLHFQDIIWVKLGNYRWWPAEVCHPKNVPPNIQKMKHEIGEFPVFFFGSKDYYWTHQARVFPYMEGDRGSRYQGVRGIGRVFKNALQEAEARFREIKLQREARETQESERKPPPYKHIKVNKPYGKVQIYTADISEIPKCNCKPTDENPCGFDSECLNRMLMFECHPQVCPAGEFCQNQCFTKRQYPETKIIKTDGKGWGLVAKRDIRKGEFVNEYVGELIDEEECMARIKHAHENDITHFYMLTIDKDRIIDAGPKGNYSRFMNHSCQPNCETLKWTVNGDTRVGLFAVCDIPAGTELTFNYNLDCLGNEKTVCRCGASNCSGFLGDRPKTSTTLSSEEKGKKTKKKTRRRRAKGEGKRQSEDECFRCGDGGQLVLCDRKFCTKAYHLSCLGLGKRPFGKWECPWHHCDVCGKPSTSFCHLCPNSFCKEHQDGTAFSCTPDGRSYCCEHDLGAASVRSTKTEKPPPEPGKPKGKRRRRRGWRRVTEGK
The test is described as follows: Inhibition of recombinant human N-terminal GST-tagged NSD2 CD (941 to 1240 residues) expressed in Escherichia coli using SAM as substrate in presence of nucleosomes by AlphaLISA method.

Structures are written as SMILES.

For one compound, IC50 results are on record in ChEMBL document CHEMBL4825702, “5-Aminonaphthalene derivatives as selective nonnucleoside nuclear receptor binding SET domain-protein 2 (NSD2) inhibitors for the treatment of multiple myeloma” (Eur J Med Chem, 2021).

By IC50 is commonly meant the midpoint of a concentration-inhibition curve. In the case of `Nc1ncnc2c1ncn2[C@@H]1O[C@H](CSCC[C@H](N)C(=O)O)[C@@H](O)[C@H]1O` [S-ADENOSYLHOMOCYSTEINE], the IC50 worked out at 39.1 µM.
